Assay results from US20250314586A1.

Chains of the proteins cited; added tags and fusions are not shown.
UniProt P03372, whole entry: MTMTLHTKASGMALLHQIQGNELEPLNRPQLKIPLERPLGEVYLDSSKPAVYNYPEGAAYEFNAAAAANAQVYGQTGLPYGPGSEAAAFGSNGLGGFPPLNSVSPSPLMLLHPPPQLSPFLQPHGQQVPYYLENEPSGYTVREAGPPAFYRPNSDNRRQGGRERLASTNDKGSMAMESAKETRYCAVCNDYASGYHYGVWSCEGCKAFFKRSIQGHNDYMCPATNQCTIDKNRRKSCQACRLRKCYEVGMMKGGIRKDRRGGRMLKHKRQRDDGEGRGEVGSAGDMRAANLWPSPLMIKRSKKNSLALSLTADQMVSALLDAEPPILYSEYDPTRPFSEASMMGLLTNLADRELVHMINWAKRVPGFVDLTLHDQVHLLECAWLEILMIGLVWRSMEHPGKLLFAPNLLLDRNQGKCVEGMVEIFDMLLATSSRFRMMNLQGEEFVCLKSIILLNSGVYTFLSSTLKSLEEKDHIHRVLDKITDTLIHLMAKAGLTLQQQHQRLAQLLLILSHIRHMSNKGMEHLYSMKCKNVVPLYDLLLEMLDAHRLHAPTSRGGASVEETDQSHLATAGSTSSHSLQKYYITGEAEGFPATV

Assays:
[1] = molecular target: T1, Estrogen Receptor (ER) (Homo sapiens, UniProt P03372); experiment: residence time imaging of ER-Halo (track length survival); format: cell-based; conditions: track length distribution, compared with DMSO or other ER modulators
T1 construct: expressed in transfected cells; host or cells: U2OS

[2] = molecular target: T2, progesterone receptor (PR) (Homo sapiens, UniProt P06401); experiment: htSMT of Halo-PR in U2OS cells; format: cell-based; conditions: 1 μM antagonist, absence or presence of cognate agonist
T2 construct: expressed in transfected cells; host or cells: U2OS
T2 sequence (P06401 1-933): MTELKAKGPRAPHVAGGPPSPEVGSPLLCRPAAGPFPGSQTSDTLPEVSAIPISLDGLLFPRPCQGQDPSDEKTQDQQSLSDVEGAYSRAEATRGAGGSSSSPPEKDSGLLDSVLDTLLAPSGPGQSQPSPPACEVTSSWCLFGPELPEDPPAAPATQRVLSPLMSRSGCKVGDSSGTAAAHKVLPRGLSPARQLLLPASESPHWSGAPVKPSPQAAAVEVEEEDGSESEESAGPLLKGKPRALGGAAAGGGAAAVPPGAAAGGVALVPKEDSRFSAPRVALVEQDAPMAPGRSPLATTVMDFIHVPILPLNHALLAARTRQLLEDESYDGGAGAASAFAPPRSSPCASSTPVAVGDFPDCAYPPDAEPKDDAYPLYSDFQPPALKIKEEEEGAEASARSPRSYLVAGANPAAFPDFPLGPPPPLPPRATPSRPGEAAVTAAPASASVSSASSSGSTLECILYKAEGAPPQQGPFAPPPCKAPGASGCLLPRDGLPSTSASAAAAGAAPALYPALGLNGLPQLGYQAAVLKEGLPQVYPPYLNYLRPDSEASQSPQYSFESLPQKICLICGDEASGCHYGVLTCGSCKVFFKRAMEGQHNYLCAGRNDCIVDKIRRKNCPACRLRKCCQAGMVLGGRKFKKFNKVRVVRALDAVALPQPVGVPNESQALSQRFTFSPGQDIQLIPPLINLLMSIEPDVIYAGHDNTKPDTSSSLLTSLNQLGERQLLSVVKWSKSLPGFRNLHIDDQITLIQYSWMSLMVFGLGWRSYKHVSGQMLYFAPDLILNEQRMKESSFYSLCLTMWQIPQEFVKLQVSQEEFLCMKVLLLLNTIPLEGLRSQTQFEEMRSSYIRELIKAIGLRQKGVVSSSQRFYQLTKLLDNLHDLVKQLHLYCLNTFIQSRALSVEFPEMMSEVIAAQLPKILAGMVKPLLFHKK

| Structure (SMILES) | relative ER residence (binding) times [1] | effect on PR chromatin binding (fbound) [2] |
| --- | --- | --- |
| C[C@]12CC[C@@H]3c4ccc(O)cc4C[C@@H](CCCCCCCCC[S+]([O-])CCCC(F)(F)C(F)(F)F)[C@H]3[C@@H]1CC[C@@H]2O (some centres unmarked) | longer binding times | – |
| CC#C[C@]1(O)CC[C@H]2[C@@H]3CCC4=CC(=O)CCC4=C3[C@@H](c3ccc(N(C)C)cc3)C[C@@]21C [mifepristone] | – | behaves similarly to ER antagonists |
